In publication PMC10693528, “A high-throughput metabolomics in vitro platform for the characterization of hepatotoxicity” (Cell Biology and Toxicology, 2023):

System: HepG2 cells
Assay: Cytotoxicity (CellTox Green) in parallel with metabolomics experiments
Conditions: intermediate concentration (C3; C2 for aroclor), 48 h

## CC(=O)N1CCN(c2ccc(OCC3COC(Cn4ccnc4)(c4ccc(Cl)cc4Cl)O3)cc2)CC1 (stereo not shown) [Ketoconazole]
  cytotoxicity (CellTox Green): low cytotoxicity
